“And” between values parts separate entries of the source, which are not always exact repeats. Equal entries are not always repeated. Where two headings read alike, the source gives them in different places. Values belong to the molecule of their own block, whether it stands above or below them.
Experiments:
[1] = Metabolic stability of GLP-2 derivatives in vivo in pigs (terminal plasma elimination half-life T½); conditions: pig, sc, female LYD crossbred pigs, subcutaneous injection, 0.5 nmol/kg, plasma analysed by ELISA
Method: Metabolic stability of selected GLP-2 derivatives. The degradation of GLP-2 derivatives in vivo in pigs have been studied and T½ value determined for selected GLP-2 derivatives according to the present invention (T½: Terminal plasma elimination half-life) (Table 9).
All test substances were dissolved in 20 mM phosphate buffer pH 7.4.
Female LYD crossbred pigs weighing 50-75 kg. were used. All test substances were dosed 0.5 nmol/kg. The dosing volume was approx. 1 ml per animal.
Subcutaneous injections were given at the right side of the neck approximately 7 cm from the ear and 9 cm from the middle of the neck. Injections were given with a stopper on the needle, allowing 0.5 cm of the needle to be inserted.
Blood samples were drawn from an ear vein catheter. The catheter was rinsed with heparin 50 IE/ml in physiological saline. During sampling the first ml blood drawn was discarded. Blood samples were kept on ice for no longer than 20 min. before centrifugation (4° C., 4000 rpm, 10 min). After centrifugation plasma was isolated and transferred to Micronic-tubes in duplo. The plasma samples were analysed by ELISA.

[2] = tested on: growth of the small intestine in mice; type: in vivo; conditions: for E0, parameter estimate (CV %), small intestinal weight / E0, parameter estimate (CV %), small intestinal weight relative to body weight: background efficacy level at D=0; for E0, parameter estimate (CV %), small intestinal weight / E0, parameter estimate (CV %), small intestinal weight relative to body weight / γ (shape factor, Hillslope), parameter estimate (CV %), small intestinal weight / γ (shape factor, Hillslope), parameter estimate (CV %), small intestinal weight relative to body weight / Emax, parameter estimate (CV %), small intestinal weight / Emax, parameter estimate (CV %), small intestinal weight relative to body weight: nonlinear regression of dose-response; for E0, parameter estimate (CV %), small intestinal weight / E0, parameter estimate (CV %), small intestinal weight relative to body weight / Emax, parameter estimate (CV %), small intestinal weight / Emax, parameter estimate (CV %), small intestinal weight relative to body weight: mice, daily s.c. for 10 days; for Small intestinal weight, Mean ± SD / Small intestinal weight/body weight, Mean ± SD: group mean; for Emax − E0, parameter estimate (CV %), small intestinal weight / Emax − E0, parameter estimate (CV %), small intestinal weight relative to body weight: treatment-induced increase, secondary parameter of curve fitting
Description: Bioassay in Mice. Dose-Response Study of GLP-2 Derivatives. • Table 3. Model parameter estimates following nonlinear regression analysis of dose and small intestinal weights relative to body weight. • Table 4. Model parameter estimates following nonlinear regression analysis of dose and small intestinal weights. • Table 5. Body weight, small intestinal weight and relative small intestinal weight of mice treated with L17K(3-(tetradecanoylamino)propionyl)/K30R-[…]. • Table 6. […]. Body weight, small intestinal weight and relative small intestinal weight of mice treated with A2G-[…]. • Table 8. Body weight, small intestinal weight and relative small intestinal weight of control mice.
The following GLP-2 derivatives and analog were tested: • 1. L17K(3-(tetradecanoylamino)propionyl)/K30R-[…]. • 2. L17K(3-(hexadecanoylamino)propionyl)/K30R-[…]. • 3. A2G-[…]. All derivatives were dissolved and diluted in buffer containing:
Disodiumhydrogenphosphate 1.42 mg/ml, Mannitol 36.9 mg/ml, Phenol 5 mg/ml, pH 8.0.
189 female C57b1 mice were used in the study. All animals were divided into four groups:
• Group 1: Controls • Group 2: L17K(3-(tetradecanoylamino)propionyl)/K30R-[…] • Group 3: L17K(3-(hexadecanoylamino)propionyl)/K30R-[…] • Group 4: A2G-[…] Dosing
All animals received a daily subcutaneous injection of 100 pi for 10 days with the following doses:
At Day 10 the animals were weighted before they were sacrificed. The intestine was carefully removed from each animal and the small intestine dissected, rinsed with saline and weighted.
Body weight, small intestinal weight and small intestinal weight relative to body weight were reported for all animals and used generating the dose-response relationship. The treatment-induced increase in both absolute and relative small intestinal weight is calculated for each treatment group, since this is considered the pharmacologically relevant efficacy parameter.
A generalised Michaelis-Menten model, with shape factor γ corresponding to the Hillslope in the semilogarithmic dose-response curve and E0 representing the background efficacy level at D=0, was used as dose-response model. Emax is the maximal effect observed and ED50 is the dose that gives an effect equal to 50% of Emax. The model was used because of the higher flexibility compared to a four parameter logistic dose-response model (1). The model was fitted to data using nonlinear regression in order to determine estimates for Emax, ED50, γ and E0.
[formula] The goodness of fit was evaluated by visual inspection of plots showing observed data points together with fitted curves and residuals plots. Parameter estimates are presented together with CV % and 95% C.I.
In order to account for the variability in the background efficacy level, control data were included in the nonlinear regression analysis as D=0 for all three treatment groups.
The nonlinear regression analyses were performed using WinNonlin Professional, version 3.1, Pharsight. The nonlinear regression was performed using the Gauss-Newton (Levenberg and Hartley) algorithm.

[3] = absolute small intestinal weight
[4] = dose level A, 35 μg daily s.c. for 10 days
[5] = dose level B, 17.5 μg daily s.c. for 10 days
[6] = dose level C, 8.75 μg daily s.c. for 10 days
[7] = dose level D, 4.375 μg daily s.c. for 10 days
[8] = dose level E, 2.188 μg daily s.c. for 10 days
[9] = dose level F, 1.094 μg daily s.c. for 10 days
[10] = dose level G, 0.547 μg daily s.c. for 10 days
[11] = relative small intestinal weight
[12] = relative small intestinal weight as efficacy parameter
[13] = small intestinal weight as efficacy parameter
[14] = dose level A, 22 μg daily s.c. for 10 days
[15] = dose level B, 11 μg daily s.c. for 10 days
[16] = dose level C, 5.5 μg daily s.c. for 10 days
[17] = dose level D, 2.75 μg daily s.c. for 10 days
[18] = dose level E, 1.375 μg daily s.c. for 10 days
[19] = dose level F, 0.678 μg daily s.c. for 10 days
[20] = dose level G, 0.344 μg daily s.c. for 10 days

half-life [1]: 4.4 ± 1.1 h
SMILES: CCCCCCCCCCCCCCCC(=O)NCCC(=O)NCCCC[C@H](NC(=O)[C@H](CC(N)=O)NC(=O)[C@H](CC(=O)O)NC(=O)[C@H](CC(C)C)NC(=O)[C@@H](NC(=O)[C@@H](NC(=O)[C@H](CC(N)=O)NC(=O)[C@H](CCSC)NC(=O)[C@H](CCC(=O)O)NC(=O)[C@H](CC(=O)O)NC(=O)[C@H](CO)NC(=O)[C@H](Cc1ccccc1)NC(=O)[C@H](CO)NC(=O)CNC(=O)[C@H](CC(=O)O)NC(=O)[C@H](C)NC(=O)[C@@H](N)Cc1c[nH]cn1)[C@@H](C)O)[C@@H](C)CC)C(=O)N[C@@H](C)C(=O)N[C@@H](C)C(=O)N[C@@H](CCCNC(=N)N)C(=O)N[C@@H](CC(=O)O)C(=O)N[C@@H](Cc1ccccc1)C(=O)N[C@H](C(=O)N[C@@H](CC(N)=O)C(=O)N[C@@H](Cc1c[nH]c2ccccc12)C(=O)N[C@@H](CC(C)C)C(=O)N[C@H](C(=O)N[C@@H](CCC(N)=O)C(=O)N[C@H](C(=O)N[C@@H](CCCNC(=N)N)C(=O)N[C@H](C(=O)N[C@H](C(=O)N[C@@H](CC(=O)O)C(=O)O)[C@@H](C)O)[C@@H](C)CC)[C@@H](C)O)[C@@H](C)CC)[C@@H](C)CC [L17K(3-(hexadecanoylamino)propionyl)/K30R-GLP-2(1-33)]
treatment-induced increase (Emax-E0) compared to A2G-GLP-2(1-33) [2, 3]: 8.6 fold and 8 fold
E0, parameter estimate (CV %), small intestinal weight [2]: 1.1008 (3.8) g
E0, parameter estimate (CV %), small intestinal weight relative to body weight [2]: 0.0424 (2.9)
Small intestinal weight, Mean ± SD [2, 4]: 1.8463 ± 0.1546 g
Small intestinal weight/body weight, Mean ± SD [2, 4]: 0.0697 ± 0.0055
Small intestinal weight, Mean ± SD [2, 5]: 1.8650 ± 0.3423 g
Small intestinal weight/body weight, Mean ± SD [2, 5]: 0.0693 ± 0.0075
Small intestinal weight, Mean ± SD [2, 6]: 1.8325 ± 0.2052 g
Small intestinal weight/body weight, Mean ± SD [2, 6]: 0.0718 ± 0.0079
Small intestinal weight, Mean ± SD [2, 7]: 1.5713 ± 0.1492 g
Small intestinal weight/body weight, Mean ± SD [2, 7]: 0.0619 ± 0.0040
Small intestinal weight, Mean ± SD [2, 8]: 1.5850 ± 0.1996 g
Small intestinal weight/body weight, Mean ± SD [2, 8]: 0.0618 ± 0.0050
Small intestinal weight, Mean ± SD [2, 9]: 1.5175 ± 0.1423 g
Small intestinal weight/body weight, Mean ± SD [2, 9]: 0.0602 ± 0.0038
Small intestinal weight, Mean ± SD [2, 10]: 1.3886 ± 0.1313 g
Small intestinal weight/body weight, Mean ± SD [2, 10]: 0.0541 ± 0.0033
effect induced by the lowest dose used ([2]; lowest dose): 30-40 % of Emax
γ (shape factor, Hillslope), parameter estimate (CV %), small intestinal weight [2]: 0.5889 (52.9)
γ (shape factor, Hillslope), parameter estimate (CV %), small intestinal weight relative to body weight [2]: 0.7249 (41.2)
Emax, parameter estimate (CV %), small intestinal weight [2]: 2.0310 (13.1) g
Emax, parameter estimate (CV %), small intestinal weight relative to body weight [2]: 0.0727 (5.4)
treatment-induced increase (Emax-E0) compared to A2G-GLP-2(1-33) [2, 11]: 2.5 fold
increase in Emax compared to A2G-GLP-2(1-33) [2, 12]: 33%
increase in Emax compared to A2G-GLP-2(1-33) [2, 13]: 67%
Emax − E0, parameter estimate (CV %), small intestinal weight [2]: 0.9302 (29.3) g
Emax − E0, parameter estimate (CV %), small intestinal weight relative to body weight [2]: 0.0303 (13.7)

half-life [1]: 3.5 ± 1.8 h
SMILES: CCCCCCCCCCCCCC(=O)NCCC(=O)NCCCC[C@H](NC(=O)[C@H](CC(N)=O)NC(=O)[C@H](CC(=O)O)NC(=O)[C@H](CC(C)C)NC(=O)[C@@H](NC(=O)[C@@H](NC(=O)[C@H](CC(N)=O)NC(=O)[C@H](CCSC)NC(=O)[C@H](CCC(=O)O)NC(=O)[C@H](CC(=O)O)NC(=O)[C@H](CO)NC(=O)[C@H](Cc1ccccc1)NC(=O)[C@H](CO)NC(=O)CNC(=O)[C@H](CC(=O)O)NC(=O)[C@H](C)NC(=O)[C@@H](N)Cc1c[nH]cn1)[C@@H](C)O)[C@@H](C)CC)C(=O)N[C@@H](C)C(=O)N[C@@H](C)C(=O)N[C@@H](CCCNC(=N)N)C(=O)N[C@@H](CC(=O)O)C(=O)N[C@@H](Cc1ccccc1)C(=O)N[C@H](C(=O)N[C@@H](CC(N)=O)C(=O)N[C@@H](Cc1c[nH]c2ccccc12)C(=O)N[C@@H](CC(C)C)C(=O)N[C@H](C(=O)N[C@@H](CCC(N)=O)C(=O)N[C@H](C(=O)N[C@@H](CCCNC(=N)N)C(=O)N[C@H](C(=O)N[C@H](C(=O)N[C@@H](CC(=O)O)C(=O)O)[C@@H](C)O)[C@@H](C)CC)[C@@H](C)O)[C@@H](C)CC)[C@@H](C)CC [L17K(3-(tetradecanoylamino)propionyl)/K30R-GLP-2(1-33)]
treatment-induced increase (Emax-E0) compared to A2G-GLP-2(1-33) [2, 3]: 4.9 fold
E0, parameter estimate (CV %), small intestinal weight [2]: 1.0993 (3.5) g
E0, parameter estimate (CV %), small intestinal weight relative to body weight [2]: 0.0426 (3.0)
Small intestinal weight, Mean ± SD [2, 14]: 1.5188 ± 0.1996 g
Small intestinal weight/body weight, Mean ± SD [2, 14]: 0.0602 ± 0.0060
Small intestinal weight, Mean ± SD [2, 15]: 1.7486 ± 0.1857 g
Small intestinal weight/body weight, Mean ± SD [2, 15]: 0.0670 ± 0.0066
Small intestinal weight, Mean ± SD [2, 16]: 1.5975 ± 0.1921 g
Small intestinal weight/body weight, Mean ± SD [2, 16]: 0.0631 ± 0.0067
Small intestinal weight, Mean ± SD [2, 17]: 1.5563 ± 0.2025 g
Small intestinal weight/body weight, Mean ± SD [2, 17]: 0.0618 ± 0.0072
Small intestinal weight, Mean ± SD [2, 18]: 1.3813 ± 0.1131 g
Small intestinal weight/body weight, Mean ± SD [2, 18]: 0.0561 ± 0.0038
Small intestinal weight, Mean ± SD [2, 19]: 1.2900 ± 0.1896 g
Small intestinal weight/body weight, Mean ± SD [2, 19]: 0.0487 ± 0.0055
Small intestinal weight, Mean ± SD [2, 20]: 1.1413 ± 0.2003 g
Small intestinal weight/body weight, Mean ± SD [2, 20]: 0.0456 ± 0.0064
γ (shape factor, Hillslope), parameter estimate (CV %), small intestinal weight [2]: 1.8184 (38.9)
γ (shape factor, Hillslope), parameter estimate (CV %), small intestinal weight relative to body weight [2]: 2.0485 (32.2)
Emax, parameter estimate (CV %), small intestinal weight [2]: 1.6270 (2.9) g
Emax, parameter estimate (CV %), small intestinal weight relative to body weight [2]: 0.0636 (2.2)
treatment-induced increase (Emax-E0) compared to A2G-GLP-2(1-33) [2, 11]: 1.7 fold
increase in Emax compared to A2G-GLP-2(1-33) [2, 12]: 16%
increase in Emax compared to A2G-GLP-2(1-33) [2, 13]: 34%
Emax − E0, parameter estimate (CV %), small intestinal weight [2]: 0.5278 (12.3) g
Emax − E0, parameter estimate (CV %), small intestinal weight relative to body weight [2]: 0.0211 (9.3)

— patent US7411039B2, “GLP-2 compounds, formulations, and uses thereof” (Novo Nordisk A/S, priority 2002, dated 2008)
